These results are taken from patent US10072001B2, “Tank-binding kinase inhibitor compounds” (Gilead Sciences, Inc., priority 2014, dated 2018).

Amino acid sequences for entries named in this document (tags omitted). A change or cut given only in a name is not applied to a line headed by its entry.
UniProt Q14164: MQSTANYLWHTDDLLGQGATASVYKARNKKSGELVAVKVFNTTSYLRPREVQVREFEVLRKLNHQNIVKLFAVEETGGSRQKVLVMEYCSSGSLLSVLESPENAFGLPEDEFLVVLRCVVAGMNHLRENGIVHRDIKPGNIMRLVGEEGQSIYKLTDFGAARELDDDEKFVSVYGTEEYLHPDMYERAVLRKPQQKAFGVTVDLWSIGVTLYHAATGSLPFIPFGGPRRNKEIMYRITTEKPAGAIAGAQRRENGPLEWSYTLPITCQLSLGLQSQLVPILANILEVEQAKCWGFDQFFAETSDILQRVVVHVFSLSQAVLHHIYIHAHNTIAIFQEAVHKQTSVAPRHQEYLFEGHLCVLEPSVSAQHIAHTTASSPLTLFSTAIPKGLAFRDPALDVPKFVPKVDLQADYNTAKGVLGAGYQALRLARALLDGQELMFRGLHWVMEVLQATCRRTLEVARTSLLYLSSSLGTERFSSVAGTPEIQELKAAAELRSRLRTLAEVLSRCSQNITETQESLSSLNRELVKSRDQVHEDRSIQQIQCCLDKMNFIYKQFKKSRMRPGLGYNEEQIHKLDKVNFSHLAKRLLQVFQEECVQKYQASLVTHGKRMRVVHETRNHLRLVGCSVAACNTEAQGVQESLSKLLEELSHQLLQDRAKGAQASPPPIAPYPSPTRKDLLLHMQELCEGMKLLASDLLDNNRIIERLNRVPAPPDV
UniProt Q9UHD2: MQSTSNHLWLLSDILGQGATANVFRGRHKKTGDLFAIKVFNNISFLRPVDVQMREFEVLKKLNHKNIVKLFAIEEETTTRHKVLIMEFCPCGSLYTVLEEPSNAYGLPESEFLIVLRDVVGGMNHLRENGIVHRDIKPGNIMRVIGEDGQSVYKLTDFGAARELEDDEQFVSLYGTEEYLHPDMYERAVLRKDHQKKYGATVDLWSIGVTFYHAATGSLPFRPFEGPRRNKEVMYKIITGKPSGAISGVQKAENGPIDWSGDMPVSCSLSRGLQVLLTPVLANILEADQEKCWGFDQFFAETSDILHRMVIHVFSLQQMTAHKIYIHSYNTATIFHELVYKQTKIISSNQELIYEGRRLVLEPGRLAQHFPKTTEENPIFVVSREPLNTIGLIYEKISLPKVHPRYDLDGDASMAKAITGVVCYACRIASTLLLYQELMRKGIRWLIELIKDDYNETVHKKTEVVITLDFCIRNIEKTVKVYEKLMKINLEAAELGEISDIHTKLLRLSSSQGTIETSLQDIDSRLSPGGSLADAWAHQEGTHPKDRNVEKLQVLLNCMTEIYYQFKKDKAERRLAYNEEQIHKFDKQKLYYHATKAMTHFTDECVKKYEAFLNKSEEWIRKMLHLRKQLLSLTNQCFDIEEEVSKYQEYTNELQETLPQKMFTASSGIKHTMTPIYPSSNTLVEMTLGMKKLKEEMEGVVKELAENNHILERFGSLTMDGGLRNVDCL

For one assay, the target named is IKKε (Homo sapiens (Human), UniProt Q14164). The assay is described as follows: TR-FRET kinase assay, IKKε. To be noted: full length recombinant IKKε 0.3 nM, 2x Km ATP, 1 μM peptide, 240 min at 25° C.; geometric mean of minimum four determinations. The assay is classed as biochemical. The source says: Biological Assay for TBK1 and IKKs:
In another assay the target is TBK1 (Homo sapiens (Human), UniProt Q9UHD2). The assay is described as follows: TR-FRET kinase assay, TBK1. To be noted: read-out: TBK1-IC50; full length recombinant TBK1 2.5 nM, 2x Km ATP, 1 μM peptide, 240 min at 25° C.; geometric mean of minimum four determinations.

Each structure is given as a SMILES string.

With `COc1ccc(-c2cc3c(-c4ccc(OC5CCOCC5)c(C#N)c4)ccnc3[nH]2)cc1OC` [Example 1, 5-(2-(3,4-dimethoxyphenyl)-1H-pyrrolo[2,3-b]pyridin-4-yl)-2-((tetrahydro-2H-pyran-4-yl)oxy)benzonitrile], on IKKε, the IC50 is 41 nM.

Take `N#Cc1cc(-c2ccnc3[nH]c(-c4ccc(CN5CCOCC5)cc4)cc23)ccc1OC1CCOCC1` [Example 2, 5-(2-(4-(morpholinomethyl)phenyl)-1H-pyrrolo[2,3-b]pyridin-4-yl)-2-((tetrahydro-2H-pyran-4-yl)oxy)benzonitrile]: the IC50 on TBK1 and at IKKε was 1.5 nM each time.

`N#Cc1cc(-c2ccnc3[nH]c(C#CC4CCOCC4)cc23)ccc1OC1CCOCC1` [Example 35, 5-(2-((tetrahydro-2H-pyran-4-yl)ethynyl)-1H-pyrrolo[2,3-b]pyridin-4-yl)-2-((tetrahydro-2H-pyran-4-yl)oxy)benzonitrile]: the IC50 at IKKε worked out at 139 nM.

For `N#Cc1cc(-c2ccnc3[nH]c(-c4ccc(N5CC6(COC6)C5)cc4)cc23)ccc1OC1CCOCC1` [Example 46, 5-(2-(4-(2-oxa-6-azaspiro[3.3]heptan-6-yl)phenyl)-1H-pyrrolo[2,3-b]pyridin-4-yl)-2-((tetrahydro-2H-pyran-4-yl)oxy)benzonitrile], the IC50 on TBK1 was determined as 4.49 nM.

For `N#CCC(=O)N1CCN(c2ccc(-c3cc4c(-c5ccc(OC6CCOCC6)c(C#N)c5)ccnc4[nH]3)cc2)CC1` [Example 57, 5-(2-(4-(4-(2-cyanoacetyl)piperazin-1-yl)phenyl)-1H-pyrrolo[2,3-b]pyridin-4-yl)-2-((tetrahydro-2H-pyran-4-yl)oxy)benzonitrile], the IC50 on TBK1 came out at 1.46 nM.

As for `N#Cc1cc(-c2ccnc3[nH]c(-c4ccc(C5(C#N)CC5)cc4)cc23)ccc1OC1CCOCC1` [Example 67, 5-(2-(4-(1-cyanocyclopropyl)phenyl)-1H-pyrrolo[2,3-b]pyridin-4-yl)-2-((tetrahydro-2H-pyran-4-yl)oxy)benzonitrile], the IC50 was 5.56 nM on TBK1 and greater than 1000 nM at IKKε.

As for `N#Cc1cc(-c2ccnc3[nH]c(-c4cncc(N)n4)cc23)ccc1OC1CCOCC1` [Example 73, 5-(2-(6-aminopyrazin-2-yl)-1H-pyrrolo[2,3-b]pyridin-4-yl)-2-((tetrahydro-2H-pyran-4-yl)oxy)benzonitrile], the IC50 on IKKε came to 16.1 nM.

For `N#Cc1cc(-c2ncnc3[nH]c(C4=CCC5(CC4)OCCO5)cc23)ccc1OC1CCN(C(=O)CO)CC1` [Example 175, 5-(6-(1,4-dioxaspiro[4.5]dec-7-en-8-yl)-7H-pyrrolo[2,3-d]pyrimidin-4-yl)-2-((1-(2-hydroxyacetyl)piperidin-4-yl)oxy)benzonitrile], the IC50 on TBK1 turned out to be 1.46 nM.

`N#Cc1cc(-c2ncnc3[nH]c(-c4ccc(N5CCN(CC(F)F)CC5)cc4)cc23)ccc1OC1CCN(C(=O)CO)CC1` [Example 264, 5-(6-(4-(4-(2,2-difluoroethyl)piperazin-1-yl)phenyl)-7H-pyrrolo[2,3-d]pyrimidin-4-yl)-2-((1-(2-hydroxyacetyl)piperidin-4-yl)oxy)benzonitrile]: the concentration for half-maximal inhibition (IC50) at IKKε stood at 2.61 nM.

As to `N#Cc1cc(-c2ncnc3[nH]c(-c4cncc(N)n4)cc23)ccc1OC1CCOCC1` [Example 269, 5-(6-(6-aminopyrazin-2-yl)-7H-pyrrolo[2,3-d]pyrimidin-4-yl)-2-((tetrahydro-2H-pyran-4-yl)oxy)benzonitrile], the values for the 50% inhibitory concentration (IC50) at TBK1 and at IKKε were 32.7 nM and 47 nM, respectively.
